Only some compounds are listed: those with a hit (about 2.3% of all), similar ones and a draw of the others.
Rango release inh – prevents RanGTP from dissociating the Rango-importin beta complex | O95149+P62826 | hit rate 0.071% among 340,000 | Biochemical FRET Rango-importin beta, RanGTP-induced dissociation | AID 540253 | Potency, µM (titrated, usually from 46.1 µM), inactives show at the highest dose activity change, negative = inhibition; calls by dose curve; note: % of control where 0% means no effect; nearly all actives have a fitted effect of over 45% in size
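Compounds sat 5 min at room temperature with 0.1 uM Rango biosensor plus 0.25 uM importin beta, then FRET pre-read. RanGTP-RCC1 (0.6 uM Ran, 2mM GTP, 0.2 uM RCC1) added for 45 min, and the CFP/YFP post-read measured blocked complex dissociation.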
A549 viability – kills or reduces viability of A549 cells in Nrf2 counter-screen. A549 ARE-Fluc cells, CellTiter-Fluor viability, 18-24 h. Potency, µM (top dose mostly 46 µM), without a hit: top-dose activity change, negative = cytotoxicity, most hits filed as inhibitors. hit rate 0.16% among 390,000; note: % is set by controls: 0 for no effect and ±100 for the full control effect
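Cytotoxicity counterscreen: CellTiter-Fluor fluorescence was measured in A549 ARE_Fluc cells after 18-24 h of compound exposure in a concentration series. The subsequent BugLite luminescent read reports ARE-luciferase activity.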
Rango-impB inh – inhibitors of Rango-importin beta complex formation; hit rate 0.031% among 340,000; AID 540263; Potency, µM (highest dose often 92.2 µM), for inactives: at the highest dose inhibition of complex formation; Rango CFP/YFP FRET sensor + importin beta, 45 min; calls by dose curve;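 note: 0% = DMSO wells and 100% = buffer wells lacking importin beta; nearly all actives have a fitted effect of over 15% in size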
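Inhibition scored from the CFP 486 nm/YFP 530 nm FRET ratio 45 min after adding 0.125 microM importin beta to 50 nM Rango biosensor preincubated 5 min with compound (room temperature, PBS with DTT, Tween-20, BSA). No-importin wells as positive control.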
Nrf2 activator – Nrf2 pathway activation. AREc32 ARE-luciferase reporter (MCF7-derived line), luminescence, 24 h. Potency, µM (top dose mostly 46.1 µM), inactives show top-dose activation, actives largely listed as activators. hit rate 0.31% among 410,000. AID 624171; note: % of control where 0% means no effect; nearly all actives have a fitted effect of over 65% in size
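Each well held 1000 AREc32 cells, which were incubated with compound for 24 hr at 37 deg C after overnight attachment, and ARE reporter activity was quantified by firefly luciferase luminescence.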
Nrf2 block – blocks Nrf2 signaling; A549 ARE-Fluc reporter, luciferase luminescence, 18-24 h; Potency, µM (series often up to 46 µM), for the others: at the highest dose activity change, negative = inhibition, usual class: inhibitors; hit rate 2.1% among 360,000; note: % is set by controls: 0 for no effect and ±100 for the full control effect; nearly all actives have a fitted effect of over 60% in size
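Two sequential reads on A549 ARE_Fluc cells exposed to compound for 18-24 h: a CellTiter-Fluor fluorescence read for viability, then a luciferase luminescence read for Nrf2/ARE activity.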
* marks the source's active call; other numbers are inactive results; ? = inconclusive; / = not tested or not shown. Unless noted, calls come from the whole dose curve; as a rule, active = well fitted curve in the direction sought with a large enough effect; inconclusive = small, poorly fitted or top-dose-only effect, or another doubt; inactive = no such curve, though single readings can be large; an effect the other way counts as inactive or inconclusive. Potency is the fitted concentration of half-maximal effect.

Letter code – A = Rango release inh; B = A549 viability; C = Rango-impB inh; D = Nrf2 activator; E = Nrf2 block
[1] Cc1ccc(NC(=O)C(=O)NCC2OCCc3ccccc32)cc1 (centres undefined)
  A = 6%; B = -4%; C = -2%; D = 1%; E = 26%
[2] O=C(CCc1ccccc1)NCC1OCCc2ccccc21 (centres undefined)
  A = 0%; B = 2%; C = 4%; D = 1%; E = 5%
[3] Cc1cc(NC(=O)C2CC(=O)N(c3cccc(Cl)c3)C2)no1 (centres undefined)
  A = -8%; B = -15%; C = -3%; D = 0%; E = ?
[4] COc1ccccc1NS(=O)(=O)c1cccc(C(=O)N/N=C(\C)c2ccc3c(c2)OCCO3)c1
  A = 0%; B = 19%; C = -3%; D = 3%; E = 12%
[5] O=S(=O)(c1cc(F)ccc1F)N1CCN(c2ncnc3ccccc23)CC1
  A = 6%; B = -18%; C = -6%; D = 0%; E = 12µM*
[6] COc1ccc(OC)c(S(=O)(=O)N2CCN(S(=O)(=O)c3ccc4c(c3)OCCO4)CC2)c1
  A = /; B = 0%; C = /; D = /; E = -8%
[7] COc1ccc(C)cc1S(=O)(=O)NC(C)C(=O)Nc1ccc2c(c1)OCO2 (centres undefined)
  A = 4%; B = -10%; C = -2%; D = -1%; E = 13%
[8] O=S(=O)(NCCc1cn2ccccc2n1)c1ccc(-c2ccccc2)cc1
  A = -10%; B = -9%; C = 3%; D = 0%; E = 21µM*
[9] CCOc1ccc(S(=O)(=O)NCCc2cn3ccccc3n2)cc1
  A = 3%; B = -9%; C = -3%; D = 1%; E = ?
[10] COc1ccc(C2Nc3ccccc3C(=O)N2Cc2ccccc2)cc1COc1ccc(C#N)cc1 (centres undefined)
  A = /; B = 2%; C = /; D = /; E = -8%

Sorted by value in Rango release inh (ascending): some entries from above.
| # | Structure | Rango release inh |
| --- | --- | --- |
| 2 | O=C(CCc1ccccc1)NCC1OCCc2ccccc21 (centres undefined) | 0% |
| 9 | CCOc1ccc(S(=O)(=O)NCCc2cn3ccccc3n2)cc1 | 3% |
| 7 | COc1ccc(C)cc1S(=O)(=O)NC(C)C(=O)Nc1ccc2c(c1)OCO2 (centres undefined) | 4% |

More records follow.
Letter code – A = Rango release inh; B = A549 viability; C = Rango-impB inh; D = Nrf2 activator; E = Nrf2 block
[11] Cn1c(N)c(C(=O)COC(=O)C2(c3ccc(F)cc3)CCCC2)c(=O)n(C)c1=O
  A = -16%; B = -6%; C = 2%; D = 5%; E = ?
[12] Cn1c(N)c(C(=O)COC(=O)C2(c3ccc(Cl)cc3)CCCC2)c(=O)n(C)c1=O
  A = -12%; B = ?; C = 0%; D = 0%; E = 18µM*
[13] CC(=O)c1c(C)[nH]c(C(=O)OCC(=O)Nc2cccnc2Cl)c1C
  A = -12%; B = 4%; C = 1%; D = 3%; E = 26µM*
[14] CC(=O)c1c(C)[nH]c(C(=O)OCC(=O)Nc2cccc(S(=O)(=O)N3CCCC3)c2)c1C
  A = 0%; B = -13%; C = -3%; D = 5%; E = 15µM*
[15] CC(=O)c1c(C)[nH]c(C(=O)OCC(=O)Nc2ccc([N+](=O)[O-])cc2Cl)c1C
  A = -4%; B = -4%; C = 3%; D = 2%; E = -1%
[16] COc1ccc(S(=O)(=O)N2CCOCC2)cc1NC(=O)COC(=O)c1[nH]c(C)c(C(C)=O)c1C
  A = -11%; B = 4%; C = 0%; D = 3%; E = ?
[17] CC(=O)c1c(C)[nH]c(C(=O)OCC(=O)NCC(C)C)c1C
  A = ?; B = -14%; C = ?; D = 2%; E = 10µM*
[18] CC(=O)c1c(C)[nH]c(C(=O)OCC(=O)Nc2cc(S(=O)(=O)N3CCCC3)ccc2Cl)c1C
  A = -10%; B = -12%; C = 1%; D = 4%; E = 21µM*
[19] CC1(C)O[C@@H]2C[C@H]3[C@@H]4CCC5=CC(=O)C=C[C@]5(C)[C@@]4(F)[C@@H](O)C[C@]3(C)[C@]2(C(=O)CO)O1
  A = -13%; B = -1%; C = -6%; D = 0%; E = 0.0041µM*
[20] CC1(C)OC2CC3C4CCC5=CC(=O)CCC5(C)C4(F)C(O)CC3(C)C2(C(=O)CO)O1 (centres undefined)
  A = 21%; B = -7%; C = -3%; D = 1%; E = 0.0052µM*
[21] CC1(C)O[C@@H]2C[C@H]3[C@@H]4C[C@H](F)C5=CC(=O)C=C[C@]5(C)[C@@]4(F)[C@@H](O)C[C@]3(C)[C@]2(C(=O)CO)O1
  A = -11%; B = -10%; C = -1%; D = -1%; E = ?
[22] COc1cc2c(cc1NC(=O)CSc1ccccc1)oc1ccccc12
  A = 5%; B = -1%; C = -1%; D = 6%; E = 15%
[23] COc1cc2c(cc1NC(=O)CSc1nc3ccccc3[nH]1)oc1ccccc12
  A = 0%; B = ?; C = 1%; D = 9%; E = 18µM*
[24] Cn1cc([N+](=O)[O-])c(C(=O)Nc2ccc3nc(-c4ccccc4)[nH]c3c2)n1
  A = -3%; B = -1%; C = ?; D = 25µM*; E = ?
[25] Cn1cc([N+](=O)[O-])c(C(=O)Nc2ccc(-c3nc4ccccc4[nH]3)cc2)n1
  A = 20%; B = 0%; C = -1%; D = ?; E = 28%
[26] O=C(c1ccccc1)c1ccc2nc(-c3ccc(NC(=O)c4ccccc4F)cc3)[nH]c2c1
  A = -8%; B = ?; C = 0%; D = 0%; E = 10µM*
[27] CN(Cc1ccccc1)C(=O)COC(=O)CCNC(=O)c1ccccc1Cl
  A = 5%; B = -1%; C = 0%; D = 0%; E = 3%
[28] COCCn1c(SCC(=O)N2CC(=O)Nc3ccccc32)nc2ccccc21
  A = -7%; B = 0%; C = -2%; D = 0%; E = 0%
[29] Cc1cc(N/C=C/C(=O)c2ccccc2)ccc1Br
  A = -26%; B = -4%; C = ?; D = 5.6µM*; E = ?
[30] O=C(/C=C/Nc1ccccc1)c1ccccc1
  A = -26%; B = -3%; C = ?; D = 10µM*; E = ?

Compound profiles, from the list above. Order of values: Rango release inh, A549 viability, Rango-impB inh, Nrf2 activator, Nrf2 block
Record of `CC(=O)c1c(C)[nH]c(C(=O)OCC(=O)Nc2cccc(S(=O)(=O)N3CCCC3)c2)c1C` : 0%, -13%, -3%, 5%, 15µM*
Record of `Cn1c(N)c(C(=O)COC(=O)C2(c3ccc(F)cc3)CCCC2)c(=O)n(C)c1=O` : -16%, -6%, 2%, 5%, ?

New compounds follow:
Letter code – A = Rango release inh; B = A549 viability; C = Rango-impB inh; D = Nrf2 activator; E = Nrf2 block
[31] CCOC(=O)c1ccccc1N/C=C/C(=O)c1ccccc1
  A = ?; B = -1%; C = ?; D = 10µM*; E = ?
[32] Cc1ccc(C(=O)/C=C\Nc2ccc(C)c(C)c2)cc1
  A = ?; B = -5%; C = ?; D = 2%; E = ?
[33] COc1cccc(N/C=C/C(=O)c2ccc(C)cc2)c1
  A = 15µM*; B = -5%; C = ?; D = 14%; E = ?
[34] Cc1ccc(-c2c(C)n3c4c(=O)n(C)c(=O)n(C)c4nc3n2CCCO)cc1
  A = /; B = -13%; C = /; D = -1%; E = 18µM*
[35] Cc1ccc(NC(=O)C2CCCN2S(=O)(=O)c2ccc3nc(-c4ccccc4)[nH]c3c2)cc1F (centres undefined)
  A = /; B = -3%; C = /; D = -1%; E = 21µM*
[36] COc1ccc(NC(=O)C2CCCN2S(=O)(=O)c2ccc3nc(-c4ccccc4)[nH]c3c2)cc1 (centres undefined)
  A = /; B = 2%; C = /; D = 0%; E = -4%
[37] CCCOc1ccc(C(=O)NNC(=S)NC(=O)c2cc(-c3ccc(Cl)cc3)nc3ccccc23)cc1
  A = -6%; B = -18%; C = -1%; D = 1%; E = 4.6µM*
[38] COc1ccc(C(=O)NNC(=S)NC(=O)c2cc(-c3ccccc3)nc3ccccc23)cc1
  A = -1%; B = ?; C = -1%; D = 21%; E = 18µM*
[39] O=C(NCCc1ccccc1Cl)c1cc2ccccn2n1
  A = /; B = -5%; C = /; D = 3%; E = ?
[40] C#CCOCCOCCOCCNc1nc(N2CCN(C(=O)[C@H](CCCCN)n3cc([C@@H](N)C(C)CC)nn3)CC2)nc(N2CCN(C(=O)[C@H](CCCCN)n3cc([C@@H](N)CC(C)C)nn3)CC2)n1 (some centres undefined)
  A = 2%; B = 4%; C = 52µM*; D = 0%; E = 5%
[41] CC[C@H](C)Cc1cn([C@@H](CCCCNC(=O)OC(C)(C)C)C(=O)NCCCCCCCCCCC(=O)N2CCN(C(=O)OC(C)(C)C)CC2)nn1
  A = -20%; B = ?; C = 1%; D = 4%; E = 10µM*
